The target of this experiment is BARTL1 (CCDC104/CFAP36) 1-133 (Homo sapiens, UniProt Q96G28). Kind of experiment: fluorescence polarization.

The chains behind the UniProt entries cited, without tags or fusion partners. Residues count along the entry.
UniProt Q96G28, 1-133: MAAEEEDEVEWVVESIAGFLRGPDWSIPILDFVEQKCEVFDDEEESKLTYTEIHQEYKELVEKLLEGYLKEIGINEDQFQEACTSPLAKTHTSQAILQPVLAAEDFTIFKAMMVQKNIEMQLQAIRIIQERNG

Some results are limits rather than exact numbers.

B1: Arl3 deltaN deltaN (protein)
chain: EVRILLLGLDNAGKTTLLKQLASEDISHITPTQGFNIKSVQSQGFKLNVWDIGGQRKIRPYWRSYFENTDILIYVIDSADRKRFEETGQELTELLEEEKLSCVPVLIFANKQDLLTAAPASEIAEGLNLHTIRDRVWQIQSCSALTGEGVQDGMNWVCKNVNAKKK
modifications: GppNHp-bound Arl3, Cy5-labeled BARTL1
A word on the Kd: it is the free concentration of one partner at which half of the binding sites on the other are occupied at equilibrium, for simple one-to-one binding. Lower therefore signals higher affinity. Regarding B1, the Kd was more than 50 µM.

(Values after publication PMC4635315 (2015).)
